Source: ChEMBL document CHEMBL1649115, “Enhanced susceptibility to antifungal oligopeptides in yeast strains overexpressing ABC multidrug efflux pumps” (Antimicrob Agents Chemother, 2008)
≈ marks a conversion by molar mass, not a printed value.

System: Candida albicans
Assay: Antifungal activity against fluconazole resistant Candida albicans isolate Gu5 overexpressing CDR1 and CDR2 in RPMI-1640 buffered medium after 24 hrs by microdilution method
Type: functional
Procedure, shortened: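 C. albicans cells were grown in 2% glucose, 1% yeast extract, 1% Bacto peptone medium before testing. CARE-2 fingerprinting confirmed that each pair is a single strain.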

SMILES: OC(Cn1cncn1)(Cn1cncn1)c1ccc(F)cc1F [FLUCONAZOLE]
- MIC: 256 µg/mL (≈ 836 µM)
